Like-named read-outs stand apart in the source and are kept apart here.
Columns and labels:
[1] = molecular target: T1, rat ventral prostate AR (Rattus norvegicus, UniProt P15207); type: binding
[2] = molecular target: T1, rat ventral prostate AR; experiment: AR exchange assay (irreversible binding, exchangeable specific 3H-MIB binding)
[3] = 3H-MIB 1 nM, 4° C., 18 hours, Table 3

Chains of the proteins cited; added tags and fusions are not shown.
UniProt P15207, whole entry S389L: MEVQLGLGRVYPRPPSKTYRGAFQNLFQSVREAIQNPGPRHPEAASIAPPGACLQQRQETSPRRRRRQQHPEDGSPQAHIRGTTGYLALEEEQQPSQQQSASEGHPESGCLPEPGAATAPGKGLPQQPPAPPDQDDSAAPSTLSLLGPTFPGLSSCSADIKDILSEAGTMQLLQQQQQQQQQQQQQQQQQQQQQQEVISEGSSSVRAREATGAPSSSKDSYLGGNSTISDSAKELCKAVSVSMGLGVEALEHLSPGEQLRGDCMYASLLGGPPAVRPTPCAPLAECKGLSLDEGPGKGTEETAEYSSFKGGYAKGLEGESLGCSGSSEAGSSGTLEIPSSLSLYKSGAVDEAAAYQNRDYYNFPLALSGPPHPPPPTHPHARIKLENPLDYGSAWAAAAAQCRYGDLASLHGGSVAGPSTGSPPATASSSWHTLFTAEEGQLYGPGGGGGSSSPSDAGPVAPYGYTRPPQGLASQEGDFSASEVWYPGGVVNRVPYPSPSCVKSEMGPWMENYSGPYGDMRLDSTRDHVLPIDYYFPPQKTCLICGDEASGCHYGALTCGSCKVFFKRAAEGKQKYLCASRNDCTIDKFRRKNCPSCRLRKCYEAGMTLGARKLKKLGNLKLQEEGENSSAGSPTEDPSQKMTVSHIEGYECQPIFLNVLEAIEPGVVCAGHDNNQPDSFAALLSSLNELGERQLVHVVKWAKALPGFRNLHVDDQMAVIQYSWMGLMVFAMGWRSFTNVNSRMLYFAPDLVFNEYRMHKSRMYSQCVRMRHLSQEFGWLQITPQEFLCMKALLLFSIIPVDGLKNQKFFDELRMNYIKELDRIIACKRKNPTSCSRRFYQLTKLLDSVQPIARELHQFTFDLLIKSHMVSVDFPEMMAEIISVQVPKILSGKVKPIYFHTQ

SMILES | Ki [1, 3] [nM] | Ki [1] [nM] | irreversible binding to the AR (result in words) ([2]; AR exchange assay) | number of exchangeable AR binding sites, % of control incubations with no ligand ([2]; ligand 2 μM, within 0.5 hr, preliminary time-dependent AR inactivation experiment) [%] | exchangeable specific binding of 3H-MIB (% of control) ([2]; ligand 10 μM, pre-incubation at 4° C. for up to 12 hours, exchange with 1 nM 3H-MIB)
C[C@](O)(CSc1cccc(NC(=O)CBr)c1)C(=O)Nc1ccc(C#N)c(C(F)(F)F)c1 | 250 | – | – | – | –
C[C@](O)(CSc1ccc(N=[N+]=[N-])cc1)C(=O)Nc1ccc(C#N)c(C(F)(F)F)c1 | 11.5 | – | – | – | –
C[C@](O)(CSc1cccc(NC(=O)CCl)c1)C(=O)Nc1ccc(C#N)c(C(F)(F)F)c1 | 1100 | – | – | – | –
C[C@](O)(CS(=O)(=O)c1ccc(N=C=S)cc1)C(=O)Nc1ccc(C#N)c(C(F)(F)F)c1 | – | 30 | bind the AR irreversibly | 50 | 15 % of control
